Like-named read-outs stand apart in the source and are kept apart here.
How the values were obtained:
[1] = for Weight Change (%): baseline vs day of last dose; for Deaths @ Cumulative Dose (mg/kg) / Survival: oral gavage
[2] = 10-parameter urine dipstick analysis (glucosuria, hematuria, pH, specific gravity) after oral SP-420
[3] = system: kidney injury molecule-1 (KIM-1)
[4] = 200 mg/kg SID, max cumulative dose 2400 mg/kg, n=5
[5] = 250 mg/kg EOD, max cumulative dose 2500 mg/kg, n=5
[6] = 250 mg/kg SID, max cumulative dose 2500 mg/kg, n=5
[7] = 325 mg/kg EOD, max cumulative dose 2600 mg/kg, n=10
[8] = 400 mg/kg EOD, max cumulative dose 2400 mg/kg, n=5
[9] = 500 mg/kg EOD, max cumulative dose 2500 mg/kg, n=5
[10] = Example 2, recovery period, both groups

COCCOCCOc1ccc(C2=N[C@@](C)(C(=O)O)CS2)c(O)c1 [SP-420, (S)-4,5-dihydro-2-[2-hydroxy-4-(3,6-dioxaheptyloxy)phenyl]-4-methyl-4-thiazolecarboxylic acid]
Weight Change (%) [1, 4]: −4.9% | Weight Change (%) [1, 5]: +8.5% | Deaths @ Cumulative Dose (mg/kg) [1, 5]: Survived | Weight Change (%) [1, 6]: −5.2% | Survival [1, 6]: 2/5 | Weight Change (%) [1, 7]: +0.8% | Deaths @ Cumulative Dose (mg/kg) [1, 7]: Survived | Survival [1, 7]: 10/10 | Weight Change (%) [1, 8]: −2.8% | Weight Change (%) [1, 9]: −5.2% | Survival of exposure to the drug ([1]; Example 1, 162.5 mg/kg SID and 325 mg/kg EOD groups, cumulative 2600 mg/kg, n=5 per group): All of the SID and EOD-treated rats survived | Rats euthanized post-last dose (weight loss, deteriorating condition) ([1]; Example 2, 162.5 mg/kg SID): One rat from the 162.5 mg/kg SID group was euthanized 4 days post-last dose | Urine Dipstick: Glucosuria (rats affected) [2, 4]: 3/5 | Urine Dipstick: Hematuria (Frank) (rats affected) [2, 4]: 2/5 | Urine Dipstick: Specific gravity ≥1.030 (rats affected) [2, 4]: 3/5 | Urine Dipstick: pH ≤5 (rats affected) [2, 4]: 4/5 | Urine Dipstick: Glucosuria (rats affected) [2, 5]: 0/5 | Urine Dipstick: Hematuria (Frank) (rats affected) [2, 5]: 0/5 | Urine Dipstick: Specific gravity ≥1.030 (rats affected) [2, 5]: 0/5 | Urine Dipstick: pH ≤5 (rats affected) [2, 5]: 0/5 | Urine Dipstick: Glucosuria (rats affected) [2, 6]: 4/5 | Urine Dipstick: Hematuria (Frank) (rats affected) [2, 6]: 1/5 | Urine Dipstick: Specific gravity ≥1.030 (rats affected) [2, 6]: 2/5 | Urine Dipstick: pH ≤5 (rats affected) [2, 6]: 3/5 | Urine Dipstick: Glucosuria (rats affected) [2, 7]: 0/10 | Urine Dipstick: Hematuria (Frank) (rats affected) [2, 7]: 0/10 | Urine Dipstick: Specific gravity ≥1.030 (rats affected) [2, 7]: 2/10 | Urine Dipstick: pH ≤5 (rats affected) [2, 7]: 0/10 | Urine Dipstick: Glucosuria (rats affected) [2, 8]: 1/5 | Urine Dipstick: Hematuria (Frank) (rats affected) [2, 8]: 0/5 | Urine Dipstick: Specific gravity ≥1.030 (rats affected) [2, 8]: 1/5 | Urine Dipstick: pH ≤5 (rats affected) [2, 8]: 2/5 | Urine Dipstick: Glucosuria (rats affected) [2, 9]: 1/5 | Urine Dipstick: Hematuria (Frank) (rats affected) [2, 9]: 1/5 | Urine Dipstick: Specific gravity ≥1.030 (rats affected) [2, 9]: 1/5 | Urine Dipstick: pH ≤5 (rats affected) [2, 9]: 2/5 | Glucosuria (rats affected) ([2]; Example 1, 325 mg/kg EOD, n=5): none | KIM-1 ≥250 ng/kg/24 h (rats affected) [3, 4]: 5/5 | KIM-1 ≥500 ng/kg/24 h (rats affected) [3, 4]: 5/5 | KIM-1 ≥1000 ng/kg/24 h (rats affected) [3, 4]: 5/5 | KIM-1 ≥2000 ng/kg/24 h (rats affected) [3, 4]: 1/5 | KIM-1 ≥250 ng/kg/24 h (rats affected) [3, 5]: 0/5 | KIM-1 ≥500 ng/kg/24 h (rats affected) [3, 5]: 0/5 | KIM-1 ≥1000 ng/kg/24 h (rats affected) [3, 5]: 0/5 | KIM-1 ≥2000 ng/kg/24 h (rats affected) [3, 5]: 0/5 | KIM-1 ≥250 ng/kg/24 h (rats affected) [3, 6]: 5/5 | KIM-1 ≥500 ng/kg/24 h (rats affected) [3, 6]: 5/5 | KIM-1 ≥1000 ng/kg/24 h (rats affected) [3, 6]: 3/5 | KIM-1 ≥2000 ng/kg/24 h (rats affected) [3, 6]: 0/5 | KIM-1 ≥250 ng/kg/24 h (rats affected) [3, 7]: 9/10 | KIM-1 ≥500 ng/kg/24 h (rats affected) [3, 7]: 4/10 | KIM-1 ≥1000 ng/kg/24 h (rats affected) [3, 7]: 3/10 | KIM-1 ≥2000 ng/kg/24 h (rats affected) [3, 7]: 1/10 | KIM-1 ≥250 ng/kg/24 h (rats affected) [3, 8]: 4/5 | KIM-1 ≥500 ng/kg/24 h (rats affected) [3, 8]: 2/5 | KIM-1 ≥1000 ng/kg/24 h (rats affected) [3, 8]: 2/5 | KIM-1 ≥2000 ng/kg/24 h (rats affected) [3, 8]: 1/5 | KIM-1 ≥250 ng/kg/24 h (rats affected) [3, 9]: 4/5 | KIM-1 ≥500 ng/kg/24 h (rats affected) [3, 9]: 2/5 | KIM-1 ≥1000 ng/kg/24 h (rats affected) [3, 9]: 1/5 | KIM-1 ≥2000 ng/kg/24 h (rats affected) [3, 9]: 0/5 | Changes in KIM-1 levels post-drug (recovery) ([3]; Example 1, 5 or 6 days post-drug): largely returned to baseline levels | KIM-1 levels on the off day (24-48 hours post drug) ([3]; Example 2, 325 mg/kg EOD): did not decrease | KIM-1 strips, T line (FIG. 2) ([3]; Example 2, 325 mg/kg EOD, cumulative dose 2600 mg/kg, strips 6-10): very little KIM-1 was observed in any of strips 6-10 except strip 7 | Average KIM-1 levels after end of dosing (FIG. 5) [3, 10]: returned to near baseline levels very quickly | KIM-1 levels after end of dosing, representative rats (FIG. 1A-1B) [3, 10]: returned to near baseline levels very quickly | Glucosuria and KIM-1 levels, EOD regimens compared to SID regimens ([3]; same cumulative dose, Table 1 summary): consistenly lower

Source: patent US20210322301A1, “DOSING REGIMENS FOR TREATING METAL-MEDIATED CONDITIONS” (Abfero Pharmaceuticals, Inc., priority 2016, published 2021)
